The chains behind the UniProt entries cited, without tags or fusion partners. Residues count along the entry.
UniProt P00742, 41-179 limits assumed: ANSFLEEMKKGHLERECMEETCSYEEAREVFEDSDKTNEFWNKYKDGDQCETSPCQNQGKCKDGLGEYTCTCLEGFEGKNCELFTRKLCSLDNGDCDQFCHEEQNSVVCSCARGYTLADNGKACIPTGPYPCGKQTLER
UniProt P00742, 235-488 limits assumed: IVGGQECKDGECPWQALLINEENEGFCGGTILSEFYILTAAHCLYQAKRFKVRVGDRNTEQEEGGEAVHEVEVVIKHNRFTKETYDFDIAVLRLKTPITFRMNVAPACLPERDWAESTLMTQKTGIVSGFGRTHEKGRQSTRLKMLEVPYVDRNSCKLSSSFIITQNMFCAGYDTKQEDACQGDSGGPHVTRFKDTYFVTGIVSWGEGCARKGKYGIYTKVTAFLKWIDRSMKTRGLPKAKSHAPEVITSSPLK

In patent US6703364B2, “Thrombin generation inhibitors” (Cleveland State University, priority 2001, dated 2004):

Tests used:
[1] = target: T1, prothrombinase (Homo sapiens, UniProt P00742); assay: fluorescent prothrombinase assay (DAPA; conversion of prothrombin to α-thrombin); format: biochemical; conditions: DAPA fluorescence, series of peptide concentrations, read-out: IC50 for inhibition of prothrombinase activity
T1 construct: purchased Haematologic Technologies, Inc
From the text: The assay used to obtain the data shown in FIG. 4 is a fluorescent assay that is described in Example 3 of this document. Briefly, the fluorescent assay, in contrast to the visual assay, measures only one reaction of the many necessary for formation of a blood clot. The fluorescent assay measures conversion of prothrombin to a-thrombin as catalyzed by prothrombinase. A fluorescent assay reaction contains prothrombin, factor Xa, factor Va and a preparation of phospholipid vesicles, which facilitate assembly of the aforementioned components into a functioning prothrombinase enzyme.
Each fluorescent assay also contains a fluorescent compound called dansylarginine-N-(3-ethyl-1,5-pentanediyl)amide (or DAPA for short). DAPA specifically binds to α-thrombin, the product of the prothrombinase reaction. Binding of DAPA by α-thrombin increases the fluorescence intensity of DAPA. In the case where no peptide inhibitor of prothrombinase is present in the reaction, high levels of α-thrombin are produced in the reaction, and DAPA fluorescence is high. When a peptide inhibitor of prothrombinase is present, little α-thrombin is produced in the reaction, and DAPA fluorescence is low. Therefore, by measuring DAPA fluorescence, the inhibitory ability of each peptide is determined. […]
Activities of prothrombinase, as measured by DAPA fluorescence, are shown on the y-axis of FIG. 4. […] DAPA fluorescence in the absence of both peptide and factor Va (the bar labeled “APXa” in FIG. 4) is 9% of the APXa/Va activity, and is background fluorescence.
The fluorescence assay specifically measured the conversion of prothrombin to α-thrombin, one essential reaction of the many required for blood clotting (see FIG. 1). […]
The fluorescent properties of DAPA were contributed by the dansyl moiety. When bound to α-thrombin, the fluorescence intensity and lifetime of the dansyl moiety were increased three-fold. Therefore, in this assay, when prothrombinase activity was uninhibited, α-thrombin was produced (see FIG. 1) and DAPA fluorescence was high. […]

[2] = target: T1, prothrombinase; assay: visual blood clotting assay (factor V-depleted plasma, thromboplastin, factor Va); format: biochemical; conditions: clotting time without peptide (about 25 seconds) = 100% activity, read-out: IC50 for inhibition of prothrombinase clotting activity
From the text: FIG. 3 is a graph showing inhibition of prothrombinase activity by the 42 amino acid peptide NR42, encompassing amino acids 307-348 of the human factor Va heavy chain (SEQ ID NO. 2). The assay used to obtain the data shown in FIG. 3 is a visual blood clotting assay that is described in detail in Example 2 of this document.
Briefly, in the visual blood clotting assay, reactions are set up that contain all components of the blood necessary to form a blood clot and the time required for formation of a visual blood clot is recorded. To test inhibitory activity of the NR42 peptide, different concentrations of NR42 are added to a series of such reactions. […] The time required for an observable blood clot to form in the absence of NR42 peptide (0 μM peptide on the x-axis) is designated as 100% prothrombinase activity, as shown on the y-axis of FIG. 3. Inhibition of blood clotting by […] results in longer clotting times. Longer clotting times are shown on the y-axis of the graph as decreased prothrombinase activity. […]
Factor Va was purchased or, alternatively was produced by treatment of 50 nM of purified factor V (Haematologic Technologies, Inc.) with 1 nM α-thrombin for 10 min followed by the addition of 2 nM hirudin. […] This time was arbitrarily determined to be 100% activity. […]

Row | IC50 [1] | IC50 [2] | Structure (SMILES)
1 | ~50 µM |  | CC(C)C[C@H](N)C(=O)N[C@@H](CC(=O)O)C(=O)N[C@@H](CC(N)=O)C(=O)N[C@@H](Cc1ccccc1)C(=O)N[C@@H](CO)C(=O)O [Peptide L5S, LDNFS]
2 | 10 to 15 µM |  | C[C@H](NC(=O)[C@H](Cc1ccccc1)NC(=O)[C@H](Cc1ccc(O)cc1)NC(=O)[C@@H](N)CCC(=O)O)C(=O)N[C@@H](CCC(=O)O)C(=O)O [EYFAE]
3 | ~0.5 µM | ~1.3 µM | CC[C@H](C)[C@H](NC(=O)[C@H](Cc1ccccc1)NC(=O)[C@H](Cc1ccc(O)cc1)NC(=O)[C@H](CCC(=O)O)NC(=O)[C@H](Cc1c[nH]c2ccccc12)NC(=O)[C@H](CCCNC(=N)N)NC(=O)[C@H](CCCCN)NC(=O)[C@H](CCSC)NC(=O)[C@H](Cc1c[nH]cn1)NC(=O)[C@H](CCCNC(=N)N)NC(=O)[C@H](CCCNC(=N)N)NC(=O)[C@H](CCC(N)=O)NC(=O)[C@H](CCC(=O)O)NC(=O)[C@H](CCCNC(=N)N)NC(=O)[C@@H](NC(=O)[C@@H](NC(=O)[C@H](CCCCN)NC(=O)[C@H](CCCCN)NC(=O)[C@H](CC(C)C)NC(=O)[C@@H](N)CC(N)=O)[C@@H](C)CC)[C@@H](C)O)C(=O)N[C@@H](C)C(=O)N[C@@H](C)C(=O)N[C@@H](CCC(=O)O)C(=O)N[C@@H](CCC(=O)O)C(=O)N[C@H](C(=O)N[C@H](C(=O)N[C@@H](Cc1c[nH]c2ccccc12)C(=O)N[C@@H](CC(=O)O)C(=O)N[C@@H](Cc1ccc(O)cc1)C(=O)N[C@@H](C)C(=O)N1CCC[C@H]1C(=O)N[C@H](C(=O)N[C@H](C(=O)N1CCC[C@H]1C(=O)N[C@@H](C)C(=O)N[C@@H](CC(N)=O)C(=O)N[C@@H](CCSC)C(=O)N[C@@H](CC(=O)O)C(=O)N[C@@H](CCCCN)C(=O)N[C@@H](CCCCN)C(=O)N[C@@H](Cc1ccc(O)cc1)C(=O)N[C@@H](CCCNC(=N)N)C(=O)O)[C@@H](C)CC)C(C)C)[C@@H](C)CC)C(C)C [NR42]
